The text below walks through data of article PMC7982521, “Studies on the Changes of Pharmacokinetics Behaviors of Phytochemicals and the Influence on Endogenous Metabolites After the Combination of Radix Bupleuri and Radix Paeoniae Alba Based on Multi-Component Pharmacokinetics and Metabolomics” (Frontiers in Pharmacology, 2021).

A short description of this data set: Multi-component pharmacokinetics in rat plasma after oral administration of RB, RPA or RB-RPA extracts (UPLC-HRMS, non-compartmental analysis). Conditions: mean ± SD, n = 7. In kind it is in vivo, Sprague-Dawley rats. The protocol:
(Beijing, China, No. SCXK2018-0011). […] All rats were free to access the water and food until 12 h before the experiment. The animal study was reviewed and approved by the Experimental Animal Ethical Committee of Modern Research Center for Traditional Chinese Medicine, Shanxi University (animal ethic approval number: SXULL2018018), and all experimental procedures were carried out in accordance with the NIH Guide for the Care and Use of Laboratory Animals. After one week of adaptation, twenty-one rats were divided into three groups randomly, with seven rats in each group: 1) RPA group, were oral administration of Radix Paeoniae Alba extract (45 g-herb/kg); 2) RB group, were oral administration of Radix Bupleuri extract (45 g-herb/kg); 3) RB-RPA group, were oral administration of powder mixture of Radix Bupleuri and Radix Paeoniae Alba extracts (containing 45 g-herb/kg Radix Bupleuri and 45 g-herb/kg Radix Paeoniae Alba). […] Each group received intragastric administration with a volume of 10 ml/kg (rat body weight). […] All rats were free to access the water during the experiment. The blood samples at each time point were collected from seven rats. The blood samples were centrifuged at 4,000 rpm for 10 min and frozen at -80°C until analysis. Using a Thermo-Fisher Dionex UltiMate 3000 UHPLC system coupled with a Q Exactive Orbitrap-MS (Thermo-Fisher, United States) and Xcalibur workstation (Thermo-Fisher Scientific Inc.,Waltham, MA, United States) to acquire UPLC-HRMS raw data. Chromatographic separation of herb extracts and plasma samples was performed on an Acquity UPLC HSS T3 column (2.1 mm × 100 mm, 1.8 μm) maintained at 37°C. The flow rate was 0.2 ml/min and the injection volume was 5 μL. […] Mass spectrometry detection conditions were set as follows: the MS data were acquired under positive and negative ionization modes via heated electrospray ionization (HESI) source. […] The Q Exactive Orbitrap-MS has a fast positive and negative ion switching function, which could switch between positive-negative ion modes during the analysis of the same sample. So, we applied the method of switching ion modes in the detection process to quantify all analytes better. Glycyrrhizin was selected as the internal standard because it could be detected in both positive and negative ion modes. UPLC/MS/MS calibration and quantitation data were processed with Xcalibur workstation (Thermo-Fisher Scientific Inc., Waltham, MA, United States). For the eight components with standard reference, calculating their concentrations from the standard curves. For the other 30 components without standard reference, their concentrations were analyzed following the regression equations of homologous compounds ([Qiao et al., 2012]): paeoniflorin for P1 and M1 to M3; methylgallate for M4 to M10; saikosaponin […] and […]; saikosaponin […]; saikosaponin […]; saikosaponin B2 for P11 and M25 to […].

[1] abbreviates: oral administration of mixed extracts RB-RPA.
Where [2] appears, read: oral administration of single extract RPA.

One may read the Cmax as the peak of the concentration-time curve. Oxypaeoniflorin: under setting [1], the AUC0-t was determined as 93.27 ± 25.68 ng·h/mL, the “AUC0-∞” value turned out to be 99.49 ± 30.27 ng·h/mL, the Cmax was found to be 26.64 ± 7.12 ng/mL and the t1/2 worked out at 2.87 ± 0.71 h. This substance also gave a tmax under setting [1] of 0.58 ± 0.13 h. In addition, under setting [2], the AUC0-t was 74.40 ± 21.91 ng·h/mL, the “AUC0-∞” value worked out at 79.59 ± 25.23 ng·h/mL, the Cmax was 21.62 ± 2.97 ng/mL and the t1/2 turned out to be 2.81 ± 0.72 h. This substance gave a tmax under setting [2] of 0.71 ± 0.19 h.
